We go through two molecules from US20220152045A1 (priority 2012, published 2022).

One data set deals with patients. Briefly: Clinical trials of the Examples taken together (85 cases of patients in total).
Data set [1] deals with surgery patients at the age of 20 or older and younger than 65. The note with it: with remifentanil hydrochloride.
Data set [2] shares this test system. The conditions noted are these: Group B, Compound B 12 mg/kg/h i.v. continuous, with remifentanil hydrochloride.
For data set [3], the system named is surgery patients at the age of 65 or older. The conditions noted are these: with remifentanil hydrochloride.
The test system is the same in data set [4]. The note with it: Group D, Compound B 4 mg/kg/h i.v. continuous, with remifentanil hydrochloride.
Where [5] appears, read: after stopping the administration, Examples 2 and 4, elderly adult or not.

Several values for one entry are separate records, joined by “and”; a condition that tells them apart may be missing. Identical values can stand only once. Like-named read-outs stand apart in the source and are kept apart here.

As for “methyl 3-[(4S)-8-bromo-1-methyl-6-(2-pyridinyl)-4H-imidazo[1,2-a][1,4]benzodiazepin-4-yl]propanoate or a salt thereof”, in the data set on patients (85 cases of patients in total), the Angialgia entry was “not observed” and the “Hypotension whose causal relationship with the active ingredient cannot be denied, number of cases” value stood at 9 cases. Also, in the data set with patients (setting [5]), the “Average time until it was determined that the patient can leave the surgery room” value was not above 30 min and the “Average time until the patient opened eyes” value is not above 15 min.
`COC(=O)CC[C@@H]1N=C(c2ccccn2)c2cc(Br)ccc2-n2c(C)cnc21.O=S(=O)(O)c1ccccc1` [Compound B, Methyl 3-[(4S)-8-bromo-1-methyl-6-(2-pyridinyl)-4H-imidazo[1,2-a][1,4]benzodiazepin-4-yl]propanoate benzenesulfonate]: the “Time until loss of consciousness (average value)” value is 108.0 s and 108.2 s in data set [1] (Group A1, Compound B 6 mg/kg/h i.v. continuous, benzenesulfonate); 70.3 s in data set [1] (Group A2, Compound B 12 mg/kg/h i.v. continuous); 65.8 s in data set [1] (Group A3, Compound B 21 mg/kg/h i.v. continuous); 65.4 s in data set [1] (Group A4, Compound B 30 mg/kg/h i.v. continuous); 72.8 s in data set [2]; 115.2 s in data set [3] (Group C1, Compound B 4 mg/kg/h (Table 5 prints 6) i.v. continuous). Further, the “Time until loss of consciousness (average value)” value in data set [3] (Group C2, Compound B 8 mg/kg/h (Table 5 prints 12) i.v. continuous) was found to be 72.5 s; in data set [3] (Group C3, Compound B 12 mg/kg/h (Table 5 prints 21) i.v. continuous), 57.6 s; in data set [4] it was 100.3 s.
